# Measured affinities in a library of Ab-95 light chain variants

Source: Engelhart et al. 2022 (doi:10.1038/s41597-022-01779-4), MIT Lincoln Laboratory and A-Alpha Bio; data file from the FLAb repository.

Target peptide (SARS-CoV-2 spike, HR2 region): PDVDLGDISGINAS

Ab-95 is the parent antibody, in scFv form: VH, then the linker GGGGSGGGGSGGGGS, then VL. The heavy chain is unchanged in all variants.
VH: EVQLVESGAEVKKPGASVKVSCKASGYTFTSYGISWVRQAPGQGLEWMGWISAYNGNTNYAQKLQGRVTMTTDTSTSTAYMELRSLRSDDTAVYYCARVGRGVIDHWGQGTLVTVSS
VL: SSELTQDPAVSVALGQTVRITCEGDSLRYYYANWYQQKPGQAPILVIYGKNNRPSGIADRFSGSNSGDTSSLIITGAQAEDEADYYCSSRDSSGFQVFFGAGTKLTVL

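The starting antibody came from a phage panning campaign against this peptide. The library (AAYL52) carries one to three amino acid substitutions per variant, with no insertions or deletions. The assay is AlphaSeq: two haploid yeast populations carry antibody and antigen on their surface. Binding brings cells together so that they mate, and sequencing counts the barcode pairs among the diploids. Read counts were normalised to the haploid input and turned into Kd by a linear fit to BCL2-family pairs of known affinity, for each replicate. The assay was run in three technical replicates.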

Each variant is given by its three light chain CDRs, as the data file delimits them; those of the parent are EGDSLRYYYAN, GKNNRPS, SSRDSSGFQVF. This list gathers variants with a substitution at G94 (VL, numbered from residue 1). The read-out is the apparent dissociation constant on a log10 scale (nM): the lower, the stronger. The mean shown is taken over the replicates in which the pair was detected. Where no diploid with the target was found in any replicate, the entry reads "nd": below detection, most likely a poor binder, though not proof of it. Empty control strains, which show no peptide, gave a signal in 28% of pairings with library AAYL52; the median was 3.91 and 95% of these signals were weaker than 2.90. No background was subtracted. In this assay the parent's reference entry averaged 2.31; its copy inside this library read 2.25.

With EGDSLHYYYAN, GKNNRPS, SSRDSSHFQVF the result was 3.34 (2 of 3 replicates).
With EGDSRRYYYAP, GKNNRPS, SSRDSSYFQVF the result was 3.99 (2 of 3 replicates).
With EGDSLRYYYAN, GKNNRPS, SSRDSSDFQVF the result was 2.02 (3 of 3 replicates).
With EGDSLRYYLAN, GKNNRPD, SSRDSSPFQVF the result was 2.60 (3 of 3 replicates).
With EGDSLRYYYAK, GKNNRPS, SSRDSSEFQVL the result was nd (0 of 3 replicates).
With EGDSMRYYYAN, GKNNRPS, SSRDSSPFQVF the result was 4.33 (2 of 3 replicates).
With EGDSLRYYYAN, GKNNYPS, SSRDSSWFQVF the result was 3.70 (3 of 3 replicates).
With RGDSLRYYYAN, CKNNRPS, SSRDSSMFQVF the result was 3.37 (1 of 3 replicates).
With EGDSLRYYYAN, GKNNRPS, SCRDSSCFQVF the result was 2.73 (3 of 3 replicates).
With EGDSLRYYYAN, GKNNKPS, SSRSSSPFQVF the result was 3.78 (3 of 3 replicates).
With EGDSLRYYYAN, GIPNRPS, SSRDSSRFQVF the result was nd (0 of 3 replicates).
With WGDSLRYYYAN, GKNNEPS, SSRDSSIFQVF the result was 4.04 (1 of 3 replicates).
With EGMSLRYYYAN, GKNNRPS, SSRDDSAFQVF the result was nd (0 of 3 replicates).
With EGDSLRYYYAN, GKNNRPS, SSRDSRRFQVF the result was 2.69 (3 of 3 replicates).
With HGDSLRYYYAN, GKNNRPS, SSRDSSDFQVW the result was 2.38 (3 of 3 replicates).
With EGDFLRYRYAN, GKNNRPS, SSRDSSYFQVF the result was 2.98 (3 of 3 replicates).
With EGDSLRYYYAN, GKNNRPS, SERDSSPRQVF the result was 3.73 (3 of 3 replicates).
With EGDNLRGYYAN, GKNNRPS, SSRDSSLFQVF the result was nd (0 of 3 replicates).
With EGDSLRYYYAN, GKNNRPS, SSQDSYIFQVF the result was 2.57 (3 of 3 replicates).
With EGCSLRYYYAN, GKNNRPS, YSRDSSQFQVF the result was 2.44 (3 of 3 replicates).
With EFDSLRYYYAN, TKNNRPS, SSRDSSLFQVF the result was 4.61 (1 of 3 replicates).
With EGDSLRYYYAN, SKNNRPS, SSRDSSLFQVF the result was 2.83 (1 of 3 replicates).
With EGDSLCYYYAN, GKNNRPS, SSRDSSAFQKF the result was 3.53 (3 of 3 replicates).
With EGDSLRYYYQN, GKNNRPS, SSRSSSHFQVF the result was nd (0 of 3 replicates).
With EGDSLRYYYAN, GKNNRPS, SSRWCSTFQVF the result was 2.83 (3 of 3 replicates).
With EGDSLRYYYAN, GKNNRPP, SFRDSSWFQVF the result was 2.84 (3 of 3 replicates).
With EGDSLRYHYAN, GKQNRPS, SSRDSSNFQVF the result was 1.33 (3 of 3 replicates).
With EGDSLRPYYAN, GKNNRPS, SSCDSSDFQVF the result was 3.25 (3 of 3 replicates).
With EGFSLRGYYAN, GKNNRPS, SSRDSSPFQVF the result was nd (0 of 3 replicates).
With EGDSLRYYHAN, GKPNRPS, SSRDSSHFQVF the result was 3.54 (1 of 3 replicates).
With EGDSLFYYYAN, GKNNRMS, SSRDSSVFQVF the result was 3.32 (3 of 3 replicates).
With EGDSLRYYYAY, GKNNRPS, SSRDSSVFQVF the result was 4.69 (1 of 3 replicates).
With EGDSLRQYYAN, GKNNRPS, SSRDSSLFQVF the result was 5.13 (2 of 3 replicates).
With EGDSLRDYYCN, GKNNRPS, SSRDSSEFQVF the result was 2.74 (3 of 3 replicates).
With EGDSLRYYYAN, GKANRPS, SSRDSSIFQVF the result was 3.89 (3 of 3 replicates).
With EGDSLRYYYAN, YKNNRPS, SSRDSSRFQVS the result was 4.38 (2 of 3 replicates).

For reference, 6 entries of the list once more:

CDR-L1,CDR-L2,CDR-L3,"log10 Kd (nM), mean",replicates with signal
EGDSLRYYYAN,GKNNRPP,SFRDSSWFQVF,2.84,3/3
EGDSLRYYYAN,GKNNRPS,SSRDSSDFQVF,2.02,3/3
EGDSRRYYYAP,GKNNRPS,SSRDSSYFQVF,3.99,2/3
EGDSLRYYYAY,GKNNRPS,SSRDSSVFQVF,4.69,1/3
EGDSLRYYHAN,GKPNRPS,SSRDSSHFQVF,3.54,1/3
EGDSLRYYYAN,GKANRPS,SSRDSSIFQVF,3.89,3/3